Assay results reported in patent US12097200B2, “Combination of BI853520 with chemotherapeutic drugs” (INXMED (NANJING) CO., LTD., priority 2020, dated 2024).

System: KYSE-70 cells
Details: KYSE-70 xenograft; BI 853520 50 mg/kg qd; docetaxel 10 mg/kg q7d; combination of both

CC(=O)O[C@@]12CO[C@@H]1C[C@H](O)[C@@]1(C)C(=O)[C@H](O)C3=C(C)[C@@H](OC(=O)[C@H](O)[C@@H](NC(=O)OC(C)(C)C)c4ccccc4)C[C@@](O)([C@@H](OC(=O)c4ccccc4)[C@H]21)C3(C)C [Docetaxel, reference compound]
Tumor regression (animals with regression/animals in group): 4 of 7 and 4/7

“And” between values parts separate entries of the source, which are not always exact repeats. Equal values may be shown once.
